The target in the assay is T1, Transient receptor potential cation channel subfamily V member 6 (Homo sapiens, UniProt Q9H1D0).
T1 sequence (Q9H1D0 whole entry): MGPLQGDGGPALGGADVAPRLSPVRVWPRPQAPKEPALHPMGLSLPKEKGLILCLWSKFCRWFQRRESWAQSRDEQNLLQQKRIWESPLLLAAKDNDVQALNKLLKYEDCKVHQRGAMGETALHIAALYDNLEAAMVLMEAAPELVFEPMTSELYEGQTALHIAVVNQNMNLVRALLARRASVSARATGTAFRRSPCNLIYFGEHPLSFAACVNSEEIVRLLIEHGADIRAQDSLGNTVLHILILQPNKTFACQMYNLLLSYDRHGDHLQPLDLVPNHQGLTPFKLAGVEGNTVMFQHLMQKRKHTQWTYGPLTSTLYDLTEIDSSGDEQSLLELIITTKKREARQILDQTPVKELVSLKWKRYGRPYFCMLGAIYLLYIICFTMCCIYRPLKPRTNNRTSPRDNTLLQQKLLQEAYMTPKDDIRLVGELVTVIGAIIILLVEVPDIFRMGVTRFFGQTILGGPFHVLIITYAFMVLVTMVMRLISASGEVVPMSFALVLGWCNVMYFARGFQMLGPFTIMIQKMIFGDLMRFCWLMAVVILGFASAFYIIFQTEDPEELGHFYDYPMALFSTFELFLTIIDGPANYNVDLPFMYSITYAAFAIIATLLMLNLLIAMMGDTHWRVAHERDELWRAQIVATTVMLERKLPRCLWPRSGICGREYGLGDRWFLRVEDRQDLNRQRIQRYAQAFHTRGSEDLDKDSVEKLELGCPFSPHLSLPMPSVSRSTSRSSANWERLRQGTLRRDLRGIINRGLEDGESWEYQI
Put plainly: Inhibition of human TRPV6 expressed in HEK293 cells assessed as reduction of Cd2+ influx preincubated for 5 mins followed by CdCl2 addition by calcium-5 fluorescence dye-based FLIPR assay. The class given is cell-based.

These results are taken from ChEMBL document CHEMBL4304815, “Photoswitchable Inhibitor of the Calcium Channel TRPV6” (ACS Med Chem Lett, 2019).

On to `c1ccc([C@H]2CC[C@@H](N3CCN(Cc4cccnc4)CC3)CC2)cc1`, for which the IC50 amounted to 1700 nM.

By IC50 is commonly meant the point on the concentration scale where inhibition reaches its midpoint.
